ChEMBL document CHEMBL4602604, “A Selective and Brain Penetrant p38αMAPK Inhibitor Candidate for Neurologic and Neuropsychiatric Disorders That Attenuates Neuroinflammation and Cognitive Dysfunction” (J Med Chem, 2019)

What was measured:
Hepatocyte [1] = assay: Induction of CYP1A2 mRNA expression in rat primary hepatocytes at 0.5 to 50 uM incubated for 48 hrs by RT-PCR analysis; format: ADME, cell-based
Hepatocyte [2] = assay: Induction of CYP2B1 mRNA expression in rat primary hepatocytes at 0.5 to 50 uM incubated for 48 hrs by RT-PCR analysis; format: ADME, cell-based
Hepatocyte [3] = assay: Induction of CYP2B6 mRNA expression in human primary hepatocytes at 0.5 to 50 uM incubated for 48 hrs by RT-PCR analysis; format: ADME, cell-based
[4] = Induction of CYP1A2 mRNA expression in dog primary hepatocytes at 0.5 to 50 uM incubated for 48 hrs by RT-PCR analysis; format: ADME, cell-based, Canis lupus familiaris, Hepatocyte
Hepatocyte [5] = assay: Induction of CYP3A4 mRNA expression in human primary hepatocytes at 0.5 to 50 uM incubated for 48 hrs by RT-PCR analysis; format: ADME, cell-based

Measured: Activity

CN1CCN(c2cc(-c3ccncc3)c(-c3ccc4ccccc4c3)nn2)CC1 [MW-150]
Non-Toxic: all assays above
